Reference: US20190388411A1, “NSAID ADMINISTRATION AND RELATED COMPOSITIONS, METHODS AND SYSTEMS” (Alfasigma S.p.A., priority 2013, published 2019)

Assay: Mortality in indomethacin- and diclofenac-induced enteropathy in rats (Example 17)
Settings: 14 days, indomethacin […] BID, diclofenac 4 mg/kg BID, omeprazole 0.7 mg/kg/day, gastroresistant rifaximin 50 mg/kg BID, as named in the label, listed as indomethacin

COc1ccc2c(c1)c(CC(=O)O)c(C)n2C(=O)c1ccc(Cl)cc1 [Indomethacin, indomethacin]
Mortality (%): 13.3%
